Assay results as given in patent publication US9636342B2, “Method for treating prostate cancer” (UNIVERSITY OF SOUTH CAROLINA, priority 2012, dated 2017).

Sequences of proteins named here, by UniProt entry; tags and fusion partners are left off. A change or cut given only in a name is not applied to a line headed by its entry.
UniProt Q9BWU1: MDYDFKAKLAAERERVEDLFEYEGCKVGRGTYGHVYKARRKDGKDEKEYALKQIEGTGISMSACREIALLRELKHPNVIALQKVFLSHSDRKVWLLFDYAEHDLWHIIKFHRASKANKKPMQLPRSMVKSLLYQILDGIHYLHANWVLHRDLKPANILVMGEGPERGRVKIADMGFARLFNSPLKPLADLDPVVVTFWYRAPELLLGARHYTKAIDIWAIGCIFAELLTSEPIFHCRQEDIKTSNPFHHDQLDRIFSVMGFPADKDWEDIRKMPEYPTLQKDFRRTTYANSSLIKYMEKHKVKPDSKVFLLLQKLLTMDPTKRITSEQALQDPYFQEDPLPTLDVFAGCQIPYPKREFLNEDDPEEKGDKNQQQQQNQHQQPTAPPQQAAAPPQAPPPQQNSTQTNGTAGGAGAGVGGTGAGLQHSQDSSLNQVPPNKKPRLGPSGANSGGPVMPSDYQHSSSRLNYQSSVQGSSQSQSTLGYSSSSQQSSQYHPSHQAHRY

Target: CDK19 (Homo sapiens, UniProt Q9BWU1)
Test: Senexin B inhibition of CDK19 kinase activity (Kd)
Assay type: binding
Description: The invention provides a method for treating prostate cancer in a subject comprising administering to the subject an effective amount of a selective inhibitor of one or more of CDK8 and CDK19. […] For purposes of the invention, “specific inhibitors of CDK8/19” are small molecule compounds that inhibit CDK8 or CDK8 and CDK19 to a greater extent than they inhibit certain other CDKs. In some embodiments, such compounds further inhibit CDK8 to a greater extent than CDK9. In preferred embodiments, such greater extent is at least 2-fold more than CDK9. Compounds that are useful in the invention are described in co-pending US Patent Publications 20120071477 and 20120071477 and PCT Publication WO2013/116786. Extent of inhibition is measured by the assays taught in co-pending PCT Publication WO2013/116786.
To test the role of CDK8/19 in AR activity, we have used selective small-molecule inhibitors of CDK8/19 developed by Senex Biotechnology, Inc. (Senex) and termed Senexin A (a.k.a. SNX2-1-53) and Senexin B (a.k.a. SNX2-1-165). Senexin A has been described in a recent article^29 and Senexin B in PCT Publication WO2013/116786. These small molecules selectively bind to the ATP pockets of CDK8/19 to inhibit their kinase activity.

CN1CCN(C(=O)c2ccc3cc(CCNc4ncnc5ccc(C#N)cc45)ccc3c2)CC1 [Senexin B]
Kd: 80 nM
